Measured values taken from article PMC8903076 (Journal of medicinal chemistry, 2021).

Tests used:
[1] = cited from earlier work
[2] = mice, single dose 5 mg/kg i.v., plasma sampled from 15 min, LC/MS/MS

detection in blood after dosing (in words) [2]: not found in blood after 15 min
Compound: CSCC[C@H](NC(=O)[C@H](CC(C)C)NC(=O)[C@H](Cc1c[nH]c2ccccc12)NC(=O)[C@H](CCC(N)=O)NC(=O)[C@@H](NC(=O)[C@H](Cc1ccccc1)NC(=O)[C@H](CC(=O)O)NC(=O)[C@H](CCC(N)=O)NC(=O)[C@H](C)NC(=O)[C@H](CCCN=C(N)N)NC(=O)[C@H](CCCN=C(N)N)NC(=O)[C@H](CO)NC(=O)[C@H](CC(=O)O)NC(=O)[C@H](CC(C)C)NC(=O)[C@H](Cc1ccc(O)cc1)NC(=O)[C@H](CCCCN)NC(=O)[C@H](CO)NC(=O)[C@H](Cc1ccc(O)cc1)NC(=O)[C@H](CC(=O)O)NC(=O)[C@H](CO)NC(=O)[C@@H](NC(=O)[C@H](Cc1ccccc1)NC(=O)[C@@H](NC(=O)CNC(=O)[C@H](CCC(N)=O)NC(=O)[C@H](CO)NC(=O)[C@@H](N)Cc1c[nH]cn1)[C@@H](C)O)[C@@H](C)O)C(C)C)C(=O)N[C@@H](CC(N)=O)C(=O)N[C@H](C(=O)O)[C@@H](C)O [Glucagon]
plasma half-life [1]: in a couple of minutes
